Data as given in PMC12567347, “Angiotensin II/Angiotensin I Ratio as a New Pharmacodynamic Parameter for Population Modelling in Healthy Adults and Children with Heart Failure Treated with Enalapril” (Pharmaceutics, 2025).

Sequences of proteins named here, by UniProt entry; tags and fusion partners are left off. Residues count along the entry.
UniProt P12821, 30-1306: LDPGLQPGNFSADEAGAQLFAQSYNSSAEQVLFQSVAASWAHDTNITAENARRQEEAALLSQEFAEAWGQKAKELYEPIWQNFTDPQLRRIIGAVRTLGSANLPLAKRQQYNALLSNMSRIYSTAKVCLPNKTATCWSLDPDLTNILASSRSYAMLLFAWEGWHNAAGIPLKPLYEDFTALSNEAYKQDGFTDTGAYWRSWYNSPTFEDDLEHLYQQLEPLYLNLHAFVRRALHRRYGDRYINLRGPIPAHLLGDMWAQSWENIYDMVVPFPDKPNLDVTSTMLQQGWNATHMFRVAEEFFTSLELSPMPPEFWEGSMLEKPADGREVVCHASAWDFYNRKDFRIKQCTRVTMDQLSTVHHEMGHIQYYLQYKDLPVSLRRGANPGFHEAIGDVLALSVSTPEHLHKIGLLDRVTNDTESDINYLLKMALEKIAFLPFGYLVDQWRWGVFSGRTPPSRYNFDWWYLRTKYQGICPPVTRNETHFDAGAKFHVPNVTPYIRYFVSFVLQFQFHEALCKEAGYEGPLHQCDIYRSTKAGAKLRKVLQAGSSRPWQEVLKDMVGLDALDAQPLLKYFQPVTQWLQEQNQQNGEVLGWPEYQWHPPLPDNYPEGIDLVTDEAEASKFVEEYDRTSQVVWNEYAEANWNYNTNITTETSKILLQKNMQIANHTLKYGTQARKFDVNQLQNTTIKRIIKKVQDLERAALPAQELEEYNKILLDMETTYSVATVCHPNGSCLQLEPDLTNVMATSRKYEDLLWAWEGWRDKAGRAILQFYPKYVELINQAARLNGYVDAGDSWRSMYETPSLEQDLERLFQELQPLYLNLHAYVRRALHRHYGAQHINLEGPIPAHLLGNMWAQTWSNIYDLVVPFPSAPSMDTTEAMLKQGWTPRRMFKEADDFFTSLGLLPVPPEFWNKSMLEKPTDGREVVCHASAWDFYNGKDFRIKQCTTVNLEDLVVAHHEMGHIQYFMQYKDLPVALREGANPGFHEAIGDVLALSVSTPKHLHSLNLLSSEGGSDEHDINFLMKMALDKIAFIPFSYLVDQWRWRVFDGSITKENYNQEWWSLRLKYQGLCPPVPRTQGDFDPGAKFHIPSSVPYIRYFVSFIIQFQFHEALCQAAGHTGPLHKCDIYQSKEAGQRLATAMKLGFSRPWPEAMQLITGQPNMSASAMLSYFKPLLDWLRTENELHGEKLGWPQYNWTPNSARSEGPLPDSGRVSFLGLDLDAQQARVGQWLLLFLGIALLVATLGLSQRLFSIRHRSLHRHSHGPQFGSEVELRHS

Target: angiotensin-converting enzyme (ACE) (Homo sapiens, UniProt P12821)
Assay: Population pharmacokinetic/pharmacodynamic Imax model with effect compartment: effect of enalaprilat on angiotensin II/angiotensin I ratio in healthy adults
Assay type: in vivo
Parameters: the angiotensin II/angiotensin I ratio can also serve as a measure of in vivo ACE activity in children with heart failure; from tissue; host or cells: in vivo in human subjects; ACE activity read indirectly from the plasma angiotensin II/angiotensin I ratio
Details: population estimate
Description: The adult data used were obtained from an open-label, single-sequence, single-dose study in nine healthy subjects. The enalaprilat, angiotensin I, and angiotensin II measurements from this study were analyzed. The study was conducted in 2013 at the Institute of Clinical Pharmacy and Pharmacotherapy at Heinrich Heine University Düsseldorf in Germany according to the Declaration of Helsinki and Good Clinical Practice recommendations. The Ethics Committee of the Medical Faculty of the Heinrich Heine University Düsseldorf granted the ethical approval (proposal no. 3809 [including all amendments]). The study was registered in the German Clinical Trials Register (DRKS00037310). Prior to participation, all subjects provided written informed consent.
After a fasting period of at least 10 h, one tablet of 20 mg enalapril maleate (EnaHEXAL®, HEXAL, Holzkirchen, Germany) was administered to the subjects with 250 mL of water. The intake of xanthine-containing food or beverages and alcohol was prohibited for at least 48 h after administration.
The time points for pharmacodynamic sampling were predose, 0.5, 1, 2, 3, 4, 5, 6, 7, 8, 24, 48, and 72 h after administration.
The calibration range of angiotensin II was between 1 and 125 pg/mL. Further information regarding the analytical methods can be found elsewhere. […]

C[C@H](N[C@@H](CCc1ccccc1)C(=O)O)C(=O)N1CCC[C@H]1C(=O)O [enalaprilat]
γ, sigmoidicity factor (Imax model with full inhibition): 2.02
ke0, effect compartment transfer rate constant: 0.48 h⁻¹
